Key:
[1] = target: T1, Recombinant human heparanase (Homo sapiens, UniProt Q9Y251); assay: Gel-based heparanase enzyme inhibition assay, fluorescent synthetic O-sulfated heparosan substrate; assay type: biochemical
T1 construct: purchased R&D Systems; Minneapolis, MN
T1 sequence (Q9Y251 158-543 limits assumed): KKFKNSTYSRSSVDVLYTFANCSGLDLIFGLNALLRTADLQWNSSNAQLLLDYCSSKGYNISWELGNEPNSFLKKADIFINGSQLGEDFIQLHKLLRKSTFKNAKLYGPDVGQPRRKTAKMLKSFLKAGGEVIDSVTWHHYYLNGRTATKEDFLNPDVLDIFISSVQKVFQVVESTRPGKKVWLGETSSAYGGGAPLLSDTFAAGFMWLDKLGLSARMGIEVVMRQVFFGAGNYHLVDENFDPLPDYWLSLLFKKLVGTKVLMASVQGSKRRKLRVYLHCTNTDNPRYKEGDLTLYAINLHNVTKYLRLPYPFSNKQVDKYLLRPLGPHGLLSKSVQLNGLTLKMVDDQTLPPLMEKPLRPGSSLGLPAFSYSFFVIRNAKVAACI
T1 sequence (Q9Y251 36-109 limits assumed): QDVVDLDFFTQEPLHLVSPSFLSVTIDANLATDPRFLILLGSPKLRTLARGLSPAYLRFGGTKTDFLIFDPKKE
From the text: PAGE (15%, 1×TBE) analysis of the kinetics of Hepase cleavage of a fluorescent sulfo-O-linked heparosan substrate (starting material marked with arrow) with a titration of the sTestan inhibitor (decreasing amounts in nanograms from left to right; 15-min time point shown here). A calibrant series of fluorescent substrate treated with varying amounts of heparanase enzyme (‘¼,’ ‘½,’ or ‘1’ for 25%, 50%, or 100% relative amounts, respectively) was used to evaluate inhibitor potency (shown on left). […]
A gel-based assay was used to monitor the catalytic action of recombinant human heparanase (R&D Systems; Minneapolis, MN) on polysaccharide substrates. In these assays, fluorescent chains were monitored for cleavage; the disappearance of the parental substrate band is readily noticeable. […]
Two types of substrates were employed to follow heparanase activity: (i) a fluorescein end-labeled synthetic O-sulfated O-linked heparosan or (ii) polyacrylamide gel electrophoretically-purified rhodamine-tagged HS. […] Aliquots of reactions were analyzed by polyacrylamide gel electrophoresis (2 μl of reaction/lane; 20% gels, 1×TBE) and fluorescence imaging (5-120 sec exposures; ChemiDoc MP). […]

Sequences of proteins named here, by UniProt entry; tags and fusion partners are left off. Residues count along the entry.
UniProt P01008, 33-464: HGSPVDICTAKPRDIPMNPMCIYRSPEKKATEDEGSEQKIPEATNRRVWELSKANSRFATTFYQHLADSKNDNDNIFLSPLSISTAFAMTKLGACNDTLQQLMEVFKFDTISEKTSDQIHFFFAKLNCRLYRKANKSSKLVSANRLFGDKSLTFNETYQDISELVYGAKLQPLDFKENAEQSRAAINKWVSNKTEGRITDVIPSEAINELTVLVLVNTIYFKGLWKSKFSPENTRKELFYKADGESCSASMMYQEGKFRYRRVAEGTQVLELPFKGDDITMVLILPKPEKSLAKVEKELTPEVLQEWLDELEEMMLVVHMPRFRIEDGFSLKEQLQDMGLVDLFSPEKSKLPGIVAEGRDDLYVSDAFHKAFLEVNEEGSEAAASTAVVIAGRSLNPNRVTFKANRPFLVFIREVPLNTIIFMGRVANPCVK

[2] = target: thrombin/antithrombin III interaction (Homo sapiens, UniProt P01008); details: FIG. 9
[3] = target: T2, HIT antibody complex (Platelet Factor 4 and antibody) (Homo sapiens, UniProt P02776); assay: Modified diagnostic HIT assay (Zymutest HIA IgG), competition with plate-bound heparin; details: ELISA, absorbance 415 nm
T2 sequence (P02776 32-101): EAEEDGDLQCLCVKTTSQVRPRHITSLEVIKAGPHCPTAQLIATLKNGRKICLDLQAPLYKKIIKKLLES
Method: ELISA methodology was used to measure the bound antibody as measured by absorbance (at 415 nm) of the product derived from a chromogenic substrate by the enzyme on the secondary antibody probe. […] Heparin derivatives treated to reduce their anticoagulant activity (non-anticoagulant heparin (NACH) or Roneparstat (Rone)) were also tested in the HIT assay.

sulfated or sulfonated testosteronan [sTestan]
IC50 [1]: 5 to 20 nM
fold less effective than heparin as anticoagulant [2]: ≥ 20,000 fold
HIT complex reactivity (competition with plate-bound heparin) [3]: less or similar HIT potential than heparin and its derivatives

Source: patent publication US20250375471A1, “HEPARANASE INHIBITORS AND METHODS OF USE” (The Board of Regents of the University of Oklahoma, priority 2022, published 2025)
